In article PMC11377155:

Assays:
[1] = target: RhoA (human (endogenous in iPSC-derived cortical neurons)) (UniProt P61586); experiment: proximity ligation; Duolink PLA with anti-pS129 and anti-Rab8 or anti-RhoA antibodies in fixed, saponin-permeabilised pi-N neurons without PFF seeding (Type I lipid-rich inclusions); percent of pS129(+) soma-type inclusions with PLA signal
[2] = target: RhoA (human (endogenous in iPSC-derived cortical neurons)) (UniProt P61586); experiment: proximity ligation; Duolink PLA with anti-pS129 and anti-Rab8 or anti-RhoA antibodies in fixed pi-N A53T neurons seeded with A53T αS PFFs (presumed Type II fibrillar inclusions); percent of pS129(+) soma-type inclusions with PLA signal

percent of inclusions with PLA signal [1] [%] | percent of inclusions with PLA signal [2] [%] | Substance
100 | – | αS-3K-sfGFP, phosphorylated at serine 129 (from UniProt P37840 1-140) (natural protein; other documents disagree on this pair)
99.7 | 42.8 | αS-A53T-sfGFP, phosphorylated at serine 129 (from UniProt P37840 1-140) (natural protein; other documents disagree on this pair)
